Experiment: Compatibility of nanocrystalline silver with excipients
Format: physicochemical
Settings: 10% aqueous solution of excipient, 40° C. overnight

Hexylene glycol
Reaction with nanocrystalline silver: Grey - no discoloration

Reference: US20080014247A1, “METAL-CONTAINING FORMULATIONS AND METHODS OF USE” (Nucryst Pharmaceuticals, priority 2006, published 2008)
